Laboratory results from article PMC8953856, “α/β-Peptides as Nanomolar Triggers of Lipid Raft-Mediated Endocytosis through GM1 Ganglioside Recognition” (Pharmaceutics, 2022).

Assays:
ganglioside GM1 = test: Isothermal titration calorimetry (ITC) with GM1:DPC 1:5 bicelles; conditions: 35 °C, GM1:DPC 1:5 (GM1 300 µM in syringe) injected into 15 µM ligand in cell, pH 7.2 phosphate buffer, one- or two-site fit, experiments repeated twice, read-out: Binding affinities (KD) to ganglioside GM1
Protocol: Isothermal Titration Calorimetry: ITC was performed using a MicroCal VP-ITC microcalorimeter at 35 °C. The monosialoganglioside GM1 was obtained from Biosynth-Carbosynth (Bratislava, Slovakia, product code: OG03918, C73H131N3O31·xNa, HPLC purity > 95%). The n-dodecylphosphocholine (DPC) was obtained from Avanti (Alabaster, Alabama, product code: 850336, C17H38NO4P, purity > 99%). In individual titrations, 15 µL of solution containing GM1:DPC 1:5 was injected into the ligand solution in the cell from a computer-controlled 300 µL microsyringe at time intervals of 300 s. The GM1:DPC micelle mixture was prepared in the same pH 7.2 phosphate buffer as the ligand in the cell. The concentration of the ligand in the cell was 15 µM. The concentration of GM1 in the syringe was 300 µM. In control experiments, GM1:DPC was titrated into the cell containing buffer without ligand. To rule out lipid clustering, control measurements were performed with pure GM1 in the syringe, which yielded a […], indicating the GM1:DPC interaction in the micelles (Figure S6). No aggregation of the micelles was observed after titration, which rules out any secondary inter-particle effects induced by ligand binding. […] Our finding is in agreement with the literature results that mixed micelles of GM1 and DPC are readily formed. […]

[1] = Protease assay with chymotrypsin; format: in vitro ADME; conditions: chymotrypsin (isolated protease) in buffer; 100 mM TRIS–HCl pH 8.0 with 10 mM CaCl2; peptide 100 mM (so in the source); 50 mL of 0.5 mg/mL chymotrypsin stock to 500 mL peptide solution (so in the source); samples at 2, 6, 25, 60 min; HPLC–MS; < 24 = peak not detected at 2 min, 3% detection limit
Protocol: Protease assays: Peptides were dissolved in 100 mM TRIS–HCl buffer (pH 8.0) containing 10 mM CaCl2 at 100 mM concentration. Chymotrypsin (Sigma-Aldrich, Budapest, Hungary) stock solution was 0.5 mg/mL in the same buffer. A total […] peptide solution was measured in a reaction vessel and […] protease stock was added. Samples of […] were taken after 2, 6, 25 and 60 min. The samples were diluted into […] 5% TFA aliquots. The samples were then injected into HPLC–MS using a Phenomenex C18-XB Peptide column (250 × 4.6 mm, […]).

[2] = Protease assay with trypsin; format: in vitro ADME; conditions: trypsin (isolated protease) in buffer; 100 mM TRIS–HCl pH 8.0 without CaCl2; peptide 100 mM (so in the source); protease stock 0.5 mg/mL; samples at 2, 6, 25, 60 min; HPLC–MS; < 24 = peak not detected at 2 min, 3% detection limit

- Kd (ganglioside GM1): 23.8 nM
- half-life [1]: < 24 s
- half-life [2]: < 24 s
SMILES: NCCCC[C@H](NC(=O)[C@H](Cc1ccc(O)cc1)NC(=O)[C@@H](N)Cc1c[nH]c2ccccc12)C(=O)N[C@@H](Cc1ccc(O)cc1)C(=O)N[C@@H](Cc1c[nH]c2ccccc12)C(N)=O [WYKYW]
